This is a selection; strong and weak results do not stand in their true shares. The source made the active and inactive calls.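 Rule for the calls: active = inhibition above the screen-wide mean inhibition plus 3 SD (cut at about 18% in these data); inactive = the rest.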
Target: Rho-associated protein kinase 2 (Homo sapiens) (UniProt O75116)
Test: ROCK2 enzymatic activity blockers – biochemical, high-throughput, luminescence, primary screen (AID 604);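 note: plate controls were DMSO wells for no effect and Y-27632 control wells after no-enzyme background subtraction for full effect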
Conditions: purified ROCK2, Kinase-Glo ATP depletion luminescence; at 6 µM; active compounds read high

The chains behind the UniProt entries cited, without tags or fusion partners.
UniProt O75116, whole entry: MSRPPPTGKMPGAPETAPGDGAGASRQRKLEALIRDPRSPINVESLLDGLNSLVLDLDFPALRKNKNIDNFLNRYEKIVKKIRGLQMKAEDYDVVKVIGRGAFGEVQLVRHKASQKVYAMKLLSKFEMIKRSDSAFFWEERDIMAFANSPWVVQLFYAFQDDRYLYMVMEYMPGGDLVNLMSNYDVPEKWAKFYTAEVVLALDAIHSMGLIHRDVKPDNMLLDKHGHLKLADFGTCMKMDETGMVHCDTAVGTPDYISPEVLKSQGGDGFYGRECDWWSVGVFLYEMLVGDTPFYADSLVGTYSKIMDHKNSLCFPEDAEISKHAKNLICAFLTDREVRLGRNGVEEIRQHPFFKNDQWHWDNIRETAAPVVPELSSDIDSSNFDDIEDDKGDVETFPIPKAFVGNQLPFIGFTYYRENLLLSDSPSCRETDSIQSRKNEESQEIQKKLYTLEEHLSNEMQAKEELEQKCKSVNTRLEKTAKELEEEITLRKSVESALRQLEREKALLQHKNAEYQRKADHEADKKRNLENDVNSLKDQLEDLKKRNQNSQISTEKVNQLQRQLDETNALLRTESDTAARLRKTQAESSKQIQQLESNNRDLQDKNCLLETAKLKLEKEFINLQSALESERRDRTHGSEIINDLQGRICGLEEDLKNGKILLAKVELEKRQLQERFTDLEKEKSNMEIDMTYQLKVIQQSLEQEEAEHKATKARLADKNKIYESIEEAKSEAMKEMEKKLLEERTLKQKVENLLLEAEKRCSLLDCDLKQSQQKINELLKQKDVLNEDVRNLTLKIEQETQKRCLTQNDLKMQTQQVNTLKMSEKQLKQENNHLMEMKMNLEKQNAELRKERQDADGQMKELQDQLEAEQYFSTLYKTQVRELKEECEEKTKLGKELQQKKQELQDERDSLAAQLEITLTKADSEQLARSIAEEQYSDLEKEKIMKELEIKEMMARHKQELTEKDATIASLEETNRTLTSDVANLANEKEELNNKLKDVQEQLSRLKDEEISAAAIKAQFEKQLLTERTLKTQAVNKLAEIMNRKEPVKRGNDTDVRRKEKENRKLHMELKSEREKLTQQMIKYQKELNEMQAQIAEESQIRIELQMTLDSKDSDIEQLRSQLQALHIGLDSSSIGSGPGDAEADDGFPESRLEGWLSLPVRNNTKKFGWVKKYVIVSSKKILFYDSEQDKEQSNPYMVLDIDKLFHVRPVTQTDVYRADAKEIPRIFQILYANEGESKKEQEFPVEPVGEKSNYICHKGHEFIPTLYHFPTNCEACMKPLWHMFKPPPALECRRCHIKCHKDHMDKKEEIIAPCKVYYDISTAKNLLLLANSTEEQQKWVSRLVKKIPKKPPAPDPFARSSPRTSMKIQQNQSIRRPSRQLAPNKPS

| SMILES | inhibition |
| --- | --- |
| COc1ccc(NC2CCN(CCc3ccccc3)CC2)c(OC)c1 | inactive: 0.3% |
| O=C(OC1CN2CCC1CC2)C1c2ccccc2Oc2ccccc21 (configuration not stated) | inactive: 6% |
| N#CC1(Nc2ccccc2)CCN(CCc2ccccc2)CC1 | inactive: 4.9% |
| N/C(=N\O)c1c(N)no[n+]1[O-] | inactive: 6% |
| CCC(CO)(C(=O)OC1CN2CCC1CC2)c1ccccc1 (configuration not stated) | inactive: -1.3% |
| CCOc1ncccc1C(=O)NCC1(N2CCOCC2)CCCCC1 | inactive: 4.6% |
| Fc1ccccc1NC1CCN(Cc2ccccc2)CC1 | inactive: 7.2% |

From PubChem BioAssay AID604 (The Scripps Research Institute Molecular Screening Center, 2007)
